Laboratory results taken from paper PMC7321251, “Verification of the Necessity of the Tolyl Group of PF-543 for Sphingosine Kinase 1 Inhibitory Activity” (Molecules, 2020).

Columns and labels:
Assay type in all cases: in vitro ADME
[1] = Liver microsomal stability, dog (DLM); conditions: dog liver microsomes, NADPH
Protocol: [Worded in the source for another species; this species is reported under the same test.] (§1) Microsomal incubations were conducted in triplicate in 0.1 M potassium phosphate buffer (pH 7.4) in a clean 1.5 mL eppendorf tube. […] HLM was added and the mixture was pre-incubated at 37 °C in a shaking incubator at approximately 350 rpm for 5 min under Thermo mixer (Eppendorf., Hamburg, Germany). Reactions were initiated by the addition of 1 mM NADPH and were then quenched by adding 40 µL of ice-cold acetonitrile containing 10 µM chlorproamide (CPP) as an internal standard at 0, 30 min. The incubation mixtures were then centrifuged at 15,000× g for 5 min at 4 °C. A 2 µL aliquot of the supernatant was directly injected into the LC-MS/MS system. The LC-MS/MS system consisted of the Nexera XR HPLC system (Shimadzu Co., Kyoto, Japan) coupled to the TSQ Vantage triple quadrupole mass spectrometer equipped with Xcalibur version 1.1.1 (Thermo Fisher Scientific Inc., Waltham, MA, USA).

[2] = Liver microsomal stability, rat (RLM); conditions: rat liver microsomes, NADPH
Protocol: [Worded in the source for another species; this species is reported under the same test.] as §1

[3] = Liver microsomal stability, mouse (MLM); conditions: mouse liver microsomes, NADPH
Protocol: [Worded in the source for another species; this species is reported under the same test.] as §1

[4] = Liver microsomal stability, human (HLM); conditions: human liver microsomes, NADPH
Protocol: as §1

Substance: (R)-(1-(4-((3-methyl-5-(phenylsulfonyl)phenoxy)methyl)benzyl)pyrrolidin-2-yl)methanol [PF-543]
- DLM microsomal stability (% remaining during 30 min) [1]: < 10 % remaining and 7.3 % remaining
- RLM microsomal stability (% remaining during 30 min) [2]: < 10 % remaining and 7.8 % remaining
- MLM microsomal stability (% remaining during 30 min) [3]: < 10 % remaining and 9.4 % remaining
- HLM microsomal stability (% remaining during 30 min) [4]: < 10 % remaining and 6.4 % remaining

Values joined by “and” are separate entries in the source; they are usually repeats but may differ in a detail not shown here. Identical values can stand only once.
